Measured values published in ChEMBL document CHEMBL1133725, “Modeling of kappa-opioid receptor/agonists interactions using pharmacophore-based and docking simulations” (J Med Chem, 2000).

By UniProt entry, the sequences of proteins in these tests, tags left out. Where a name states a change or a piece, a line headed by the entry shows the natural chain unless it says otherwise.
UniProt P41144: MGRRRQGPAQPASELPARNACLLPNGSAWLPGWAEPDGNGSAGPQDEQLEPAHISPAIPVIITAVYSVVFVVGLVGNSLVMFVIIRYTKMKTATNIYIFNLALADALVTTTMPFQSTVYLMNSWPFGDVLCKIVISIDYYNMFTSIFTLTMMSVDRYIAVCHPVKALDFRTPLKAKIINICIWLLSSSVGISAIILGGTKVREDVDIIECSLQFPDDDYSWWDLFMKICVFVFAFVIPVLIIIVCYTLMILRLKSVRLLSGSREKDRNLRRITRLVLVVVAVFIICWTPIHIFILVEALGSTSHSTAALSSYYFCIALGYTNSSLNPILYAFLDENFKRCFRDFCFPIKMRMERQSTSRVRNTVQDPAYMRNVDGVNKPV

Biological target: Kappa-type opioid receptor (Cavia porcellus, UniProt P41144)
Test: Inhibition of [3H]U-69593 binding to Opioid receptor kappa 1 in guinea pig brain homogenates

Row | SMILES | Ki [nM]
1 | CN(C(=O)Cc1ccc(Cl)c(Cl)c1)[C@H]1c2ccc(O)cc2CC[C@@H]1N1CCCC1 | 1
2 | O=C(Cc1ccc(Cl)c(Cl)c1)N1CCc2c(O)cccc2[C@H]1CN1CCCC1 | 0.09
